Ki data for two compounds are collected here from BindingDB's records for doi:10.1021/jm00029a008 (Dupont Pharmaceuticals, 1994).

Counter-ions that a name gives are not always drawn.

A short description of this experiment: Binding affinity for sigma receptor of guinea pig whole brain using [3H]-[…] radioligand.

`O=C1c2c(F)cc(F)cc2CCC12CCN(CCc1ccccc1)CC2` [6,8-difluoro-1'-phenethylspiro[1,2,3,4-tetrahydronaphthalene-2,4'-(hexahydropyridine)]-1-one; fumarate] had a Ki of 2 nM.
Compound `CN1CCC2(CCc3ccccc3C2=O)CC1` [1'-methylspiro[1,2,3,4-tetrahydronaphthalene-2,4'-(hexahydropyridine)]-1-one; hydrochloride] came in with a Ki of 1040 nM.

What is called Ki is the equilibrium dissociation constant of an inhibitor or competing ligand from its target. High values mean lower affinity, low ones higher affinity.
